These results are taken from patent publication US9315514B2, “1,3-dioxanomorphides and 1,3-dioxanocodides” (dated 2016).

The target of one assay is δ-opioid receptor (Homo sapiens (Human), UniProt P41143). The assay is described as follows: δ-opioid receptor activity in PerkinElmer ligand binding and cellular assays.
The target in a further assay is μ-opioid receptor (Homo sapiens (Human), UniProt P35372). The assay is described as follows: μ-opioid receptor [35S]GTPγS functional assay. The conditions noted are these: for μ-opioid receptor Emax: maximal effect relative to DAMGO; for EC50: read-out: μ-opioid receptor EC50, μ GTP EC50. A general note: Binding of GTPγS marks nucleotide exchange on a G protein.
For another assay, the target named is κ-opioid receptor (Homo sapiens (Human), UniProt P41145). The assay is described as follows: κ-opioid receptor [35S]GTPγS functional assay. The conditions noted are these: for κ-opioid receptor Emax: maximal effect relative to U69,593.

The structures appear in SMILES notation.

Take `C=CCN1CC[C@]23c4c5ccc(OC)c4O[C@H]2[C@@]24CCC3(C[C@@H]2[C@@](C)(C(C)(C)C)OCO4)[C@H]1C5`: the δ-opioid receptor activity result on δ-opioid receptor was “shown δ-opioid receptor activity”.
In general, EC50 refers to the midpoint of the concentration-response curve. With `CC(C)(C)[C@@]1(C)OCO[C@]23CC[C@@]4(C[C@@H]21)[C@H]1Cc2ccc(OCc5ccccc5)c5c2[C@@]4(CCN1CC1CC1)[C@H]3O5`, at μ-opioid receptor, the “μ-opioid receptor Emax” value was 56% and the EC50 came to 950 nM. The “κ-opioid receptor Emax” value on κ-opioid receptor is 0%.
As for `COc1ccc2c3c1O[C@H]1[C@@]45CC[C@@]6(C[C@@H]4[C@@](C)(C(C)(C)C)OCO5)[C@@H](C2)N(CC2CC2)CC[C@]316`, the “μ-opioid receptor Emax” value at μ-opioid receptor amounted to 43%. Further, the “κ-opioid receptor Emax” value at κ-opioid receptor is 31%. For the same molecule, at κ-opioid receptor (read-out: κ-opioid receptor EC50, κ GTP EC50), the EC50 stood at 855 nM.
`C=CCN1CC[C@]23c4c5ccc(O)c4O[C@H]2[C@@]24CC[C@@]3(C[C@@H]2[C@@](C)(C(C)(C)C)OCO4)[C@H]1C5`: at δ-opioid receptor, the δ-opioid receptor activity entry is on record as “shown δ-opioid receptor activity”.
With `COc1ccc2c3c1O[C@H]1[C@@]45C=C[C@@]6(C[C@@H]4[C@@](C)(C(C)(C)C)OCO5)[C@@H](C2)N(CC2CC2)CC[C@]316`, on μ-opioid receptor, the “μ-opioid receptor Emax” value is 36% and the EC50 amounted to 460 nM. In addition, the “κ-opioid receptor Emax” value at κ-opioid receptor is given as 40%.
